Test results reported in patent US20100204117A1, “CGRP AS A THERAPEUTIC AGENT” (priority 2008, published 2010).

Assays:
[1] = tested on: hepatitis B virus (HBV) ayw strain; assay: HBV assay in HepG2-2.2.15 cells (secreted HBV DNA, TaqMan PCR); format: cell-based; settings: 10 micrograms per ml, six days
spleen cells = assay: Th1/Th2 cytokine profiling assay (Ovalbumin-restimulated spleen cells, CBA kit); format: cell-based, Balb/c mice; settings: 10 micrograms per ml; Ovalbumin restimulation; 72 hours
Description: The Balb/c mice (originated in 1923, it is a popular strain and is used in many different research disciplines. […] On day 50, spleens of the mice were harvested (3 weeks after last boost with Ovalbumin). […] Thereafter, additional Ovalbumin was added to the cells at 10 micrograms/ml for in vitro restimulation of the cells. 72 hours later, cell supernatants were harvested and assayed using the Becton Dickinson Mouse Th1/Th2 Cytokine CBA Kit. This kit can be used to measure Interleukin-2 (IL-2), Interleukin-4 (IL-4), Interleukin-5 (IL-5), Interferon-γ (IFN-γ), and Tumor Necrosis Factor-α (TNF-α) protein levels in a single sample. The kit performance has been optimized for analysis of physiologically relevant concentrations ([…] levels) of specific cytokine proteins in tissue culture supernatants and serum samples.

[2] = tested on: Primary Human endothelial cells (HUVEC); assay: Endothelial cell migration assay; format: cell-based; settings: 10 micrograms per ml, 22 hours
HUVEC = assay: Endothelial tube formation assay; format: cell-based, human; settings: 10 micrograms per ml, 20 hours
HCMV strain AD169 = assay: HCMV plaque formation assay in MRC-5 cells; settings: 10 micrograms per ml, 7-10 days

Ala-Cys-Asp-Thr-Ala-Thr-Cys-Val-Thr-His-Arg-Leu-Ala-Gly-Leu-Leu-Ser-Arg-Ser-Gly-Gly-Val-Val-Lys-Asn-Asn-Phe-Val-Pro-Thr-Asn-Val-Gly-Ser-Lys-Ala-Phe-NH2 (ACDTATCVTHRLAGLLSRSGGVVKNNFVPTNVGSKAF; printed: Ala-Cys-Asp-Thr-Ala-Thr-Cys-Val-Thr-His-Arg-Leu-Ala-Gly-Leu-Leu-Ser-Arg-Ser-Gly-Gly-Val-Val-Lys-Asn-Asn-Phe-Val-Pro-Thr-Asn-Val-Gly-Ser-Lys-Ala-Phe-) [peptide 2]
inhibition of HBV replication as compared to the virus control infection [1]: 11.9% | IFNγ spleen cells; TH1 response (% of control) (spleen cells): 16.2 % of control | IL-2 spleen cells (% of control) (spleen cells): 56.5 % of control | IL-4 spleen cells; TH2 response (% of control) (spleen cells): 76.6 % of control | IL-5 spleen cells; TH2 response (% of control) (spleen cells): 34.5 % of control | TNF-a spleen cells; TH1 response (% of control) (spleen cells): 71.8 % of control | inhibition of the migration of human endothelial cells [2]: 11% | inhibition of the tube formation of human endothelial cells (HUVEC): 4% | inhibition of HCMV plaque formation as compared to the virus control experiment (HCMV strain AD169): did not show any inhibition
